Values quoted from earlier work, collected in patent US20130143873A1 (priority 2010, published 2013).

Tested on: ALS patients
Details: initial trials; cited from earlier work

Q: Which “increase in survival (mean)” value does the source give for `Nc1nc2ccc(OC(F)(F)F)cc2s1` [riluzole] here?
A: three
